In PubChem BioAssay AID485349 (National Center for Advancing Translational Sciences (NCATS), 2010) one finds activation data, which are given here for 76 molecules.

This is a selection; strong and weak results do not stand in their true shares. Calls of active or inactive are those of the source. Calls follow the shape of the dose curve; as a rule, active = well fitted activation curve with a large enough effect; inconclusive = small, poorly fitted or top-dose-only effect; inactive = no such curve, though single readings can be large or run the other way.

The nature of the assay: qHTS Assay for Identifying a Potential Treatment of Ataxia-Telangiectasia. Also: % of control where 0% means no effect; nearly all actives have a fitted effect of over 45% in size. The conditions noted are these: […] A-T fibroblasts, KAP-1 phosphorylation AlphaLISA, neocarzinostatin DNA damage 30 min before lysis; at 57.5 µM (top of the series) unless noted. The source says: NIH Chemical Genomics Center [NCGC] NIH Molecular Libraries Probe Centers Network [MLPCN] MLPCN Grant: MH089030-01 Assay Submitter (PI): Wei Zheng and Yosef Shiloh Ataxia-telangiectasia (A-T) is a devastating and progressive disease for which, there is no cure. Although A-T is a multisystem disease, it is stereotyped characterized by its neurological symptoms such as truncal ataxia, due to cerebellar cortical degeneration of the Purkinje and granule cells. Other symptoms of A-T are telangiectasias (dilated blood vessels), primary immunodeficiency, marked sensitivity to ionizing radiation (IR), chromosomal instability and predisposition to cancer. The underlying genetic cause of A-T is null mutations in the ATM (A-T mutated) gene. ATM is a nuclear serine/threonine kinase that functions as a master regulator of the cellular responses to double strand breaks (DSBs) in the DNA. Upon activation by DSBs, ATM phosphorylates a plethora of down stream targets, including KAP-1 on […]. KAP-1 phosphorylation occurs shortly in response to DSBs and mediates global chromatin relaxation, which facilitates DSB repair. To screen for small molecules that will compensate for the loss of ATM in cells derived from A-T patients, we monitored KAP-1 phosphorylation as a readout for ATM-like activity using an AlphaLISA assay.
qHTS Assay Protocol: Step,Parameter,Value,Description 1. Cell Plating, 3 ul, 500 cells/well in OPTI-MEM, 1% FBS, 1% Pen/Strep 2. Incubation, 16-24 hr, 37C, 5% CO2, 95% humidity 3. Library compounds, 23 nl, 76.7 - 0.61uM dilution series final concentration 4. Incubation, 60 min, 37C, 5% CO2, 95% humidity 5. Reagent, 1 ul, 1600 ng/ml NCS in PBS + 0.05% BSA + 0.005% Tween 20 6. Incubation, 30 min, 37C, 5% CO2, 95% humidity 7. Reagent, 1 ul, Premixed detection reagents and lysis buffer 8. Reagent, 1 ul, 0.6% Antifoam A 9. Incubation, 6 hr, 25C, 95% humidity 10. Readout, EnVision, EnVision plate reader. AlphaScreen 1536-well protocol Cells were plated using medium-binding white solid-bottom tissue culture treated Kalypsys plates. Multidrop dispense of 3 uL of […] (hTERT immortalized A-T patient fibroblast cells). Detection reagent and lysis buffer was 3.75nM Rab-a-pKAP1 antibody bound to 75 ng/ul AlphaScreen SA donor bead, 3.75 nM Biot-M-a-KAP1 antibody bound to AlphaLISA protein A acceptor bead, 0.5x protease inhibitor cocktail and 0.25x PerkinElmer lysis buffer. EnVision protocol for 1536-well AlphaScreen read (30ms excitation, 100ms read), about 10 min/plate.
Background: In qHTS, concentration-response curves come from the screen itself.
In the case of `CP(=O)(OC12CC3CC(CC(C3)C1)C2)OC12CC3CC(CC(C3)C1)C2`, the activation is inactive: 4.06%.

Take `CCOC(=O)c1ccc(NP(C)(=O)Oc2ccc(Cl)cc2)cc1` (stereo unspecified): the activation is inactive: 5.06%. For `CP(=O)(Nc1ccc(Cl)cc1)Oc1ccc(F)cc1` (stereo unspecified), the activation is inactive: 3.47%.

Turning to `CC(C)(C)c1ccc(OP(C)(=O)O)cc1`, the activation is inactive: -0.212%. Consider `COc1ccccc1OP(C)(=O)Nc1ccccc1Br` (stereo unspecified), for which the activation is inactive: 6.21%.

Consider `CN(C)C(=O)c1c([N+](=O)[O-])cc([N+](=O)[O-])cc1[N+](=O)[O-]`, for which the activation was inactive: 8.95%. The figure for `COc1ccc(OP(C)(=O)Nc2ccc(Br)cc2)cc1` (stereo unspecified) is inactive: -3.02%; for `CCN(CC)CC(O)COC(=O)C(O)(c1ccccc1)C1CCCCC1` (stereo unspecified) it is inactive: 3.36%. `CCc1ccc(OP(C)(=O)Nc2cccnc2)cc1` (stereo unspecified): the activation was inactive: 2.42%.

In the case of `CP(=O)(Oc1ccccc1)N1CCOC1=O` (stereo unspecified), the activation was inactive: -0.433%. The figure for `O=C(OCCCN1CCCC1)C(O)(c1ccccc1)C1CCCCC1` (stereo unspecified) is inactive: 20.3%. On to `COc1ccccc1OP(C)(=O)Nc1c(C)n(C)n(-c2ccccc2)c1=O` (stereo unspecified), for which the activation is inactive: 0.669%. On to `O=[N+]([O-])c1cc([N+](=O)[O-])c(Nc2ccccn2)c([N+](=O)[O-])c1`, for which the activation is inactive: 2.53%. On to `Cc1c(NP(C)(=O)Oc2ccc(C(C)C)cc2)c(=O)n(-c2ccccc2)n1C` (stereo unspecified), for which the activation is inactive: -3.03%. As for `CCc1ccc(OP(C)(=O)O)cc1`, the activation was inactive: 27.1%.

With `COc1ccccc1OP(C)(=O)Nc1ccc(C)cc1C` (stereo unspecified), the activation is inactive: 7.91%. Regarding `CP(=O)(Nc1ccccn1)Oc1ccccc1` (stereo unspecified), the activation was inactive: 2.74%. Consider `COc1ccccc1OP(C)(=O)Nc1ccc(Br)cc1` (stereo unspecified), for which the activation is inactive: 6.9%.

Turning to `CN(C)CCOC(=O)C(O)(c1ccccc1)C1CCCC1` (stereo unspecified), the activation is inactive: -2.83%. Consider `Cc1nc2ccc3ccccc3c2o1.O=[N+]([O-])c1cc([N+](=O)[O-])c(O)c([N+](=O)[O-])c1`, for which the activation is inactive: -5.06%. In the case of `CP(=O)(OCCOc1ccccc1)OCCOc1ccccc1`, the activation was inactive: -3.1%. The figure for `CP(=O)(Nc1ccc(Cl)cc1Cl)Oc1ccccc1` (stereo unspecified) is inactive: 6.16%. Take `Cc1cc(C)cc(OP(C)(=O)Nc2cccc(C(F)(F)F)c2)c1` (stereo unspecified): the activation is inactive: 2.32% [at 11.5 µM]. Consider `COc1ccc(OP(C)(=O)Nc2ccccc2Br)cc1` (stereo unspecified), for which the activation is inactive: -0.127%. The figure for `COc1ccccc1OP(C)(=O)Nc1ccc(C)c(C)c1` (stereo unspecified) is inactive: 4.6%.

As for `CCCCCOc1ccc(NP(C)(=O)Oc2ccc(Cl)cc2Cl)cc1` (stereo unspecified), the activation is inactive: 11.5%. In the case of `CP(=O)(Nc1ccccc1)Oc1ccc(F)cc1` (stereo unspecified), the activation was inactive: -6.9%. Take `COc1ccc(OP(C)(=O)Nc2ccc(SC(F)(F)F)cc2)cc1` (stereo unspecified): the activation is inactive: 6.76%. For `CCOC(=O)c1ccc(NP(C)(=O)Oc2ccc(F)cc2)cc1` (stereo unspecified), the activation was inactive: 9.44%. For `O=C(OCCN1CCN(CCOCc2ccccc2)CC1)C(O)(c1ccccc1)c1ccccc1`, the activation was inactive: -2.2%. With `CC(C)c1ccc(OP(C)(=O)Nc2ccc(SC(F)(F)F)cc2)cc1` (stereo unspecified), the activation is inactive: -7.76%. The figure for `CP(=O)(Nc1ccccc1F)Oc1ccccc1` (stereo unspecified) is inactive: -1.73%; for `CP(=O)(Nc1ccc2c(c1)OCCO2)Oc1ccccc1` (stereo unspecified) it is inactive: -0.823%; for `Cc1ccccc1NP(C)(=O)Nc1ccccc1C` it is inactive: -2.33%. The figure for `CP(=O)(Nc1ccc(SC(F)(F)F)cc1)Oc1ccc(F)cc1` (stereo unspecified) is inactive: -3.85%.

For `CCOP(C)(=S)SCC(=O)NC(C)(CC)C(=O)O` (stereo unspecified), the activation is inactive: -3.54%. The figure for `Cc1cc(-c2cccc3ccccc23)c(C)cn1.O=[N+]([O-])c1cc([N+](=O)[O-])c(O)c([N+](=O)[O-])c1` is inactive: -7.3%; for `O=[N+]([O-])c1ccc(OP2(=O)COCCO2)cc1` (stereo unspecified) it is inactive: 5.42%; for `COc1ccc(OP(C)(=O)Nc2cccc(Br)c2)cc1` (stereo unspecified) it is inactive: 0%.

Consider `COc1ccc(NP(C)(=O)Oc2ccccc2OC)cc1` (stereo unspecified), for which the activation is inactive: 1.28%. For `CN(C)CCOC(=O)C(O)(c1ccccc1)C1CCCCC1` (stereo unspecified), the activation is inactive: 0.622%. For the molecule `COc1ccccc1OP(C)(=O)Nc1c(C)cccc1C` (stereo unspecified), the activation was inactive: 7.54%. The figure for `CN1CCCCC1COC(=O)C1(O)c2ccccc2CCc2ccccc21` (stereo unspecified) is inactive: -1.56%; for `CP(=O)(Nc1ccc(SC(F)(F)F)cc1)Oc1ccccc1` (stereo unspecified) it is inactive: -0.962%.

For `CCCOc1ccc(NP(C)(=O)Oc2ccc(Cl)cc2)cc1` (stereo unspecified), the activation was inactive: 15.1%. `O=[N+]([O-])c1cc([N+](=O)[O-])c(Nc2nnnn2CCO)c([N+](=O)[O-])c1`: the activation was inactive: -9.86%. Consider `CC1=C2N=C(C=C3N=C(C(C)=C4[N-][C@@](C)([C@@H]5N=C1[C@](C)(CCC(=O)NC[C@@H](C)OP(=O)([O-])O[C@H]1[C@@H](O)[C@@H](n6cnc7cc(C)c(C)cc76)O[C@@H]1CO)[C@H]5CC(N)=O)[C@@](C)(CC(N)=O)[C@@H]4CCC(N)=O)[C@@](C)(CC(N)=O)[C@@H]3CCC(N)=O)C(C)(C)[C@@H]2CCC(N)=O.[C-]#N.[Co+3]`, for which the activation was inactive: -18.1%. The figure for `Cc1nc2ccc3ccccc3c2s1.O=[N+]([O-])c1cc([N+](=O)[O-])c(O)c([N+](=O)[O-])c1` is inactive: 4.77%. In the case of `O=[N+]([O-])c1cc([N+](=O)[O-])c(-n2nnc3ccccc32)c([N+](=O)[O-])c1`, the activation was inactive: 4.9%. As for `CP(=O)(Nc1cccc(Br)c1)Oc1ccccc1` (stereo unspecified), the activation was inactive: 7.81%.

As to `Cc1cc(C)cc(OP(C)(=O)Nc2ccccn2)c1` (stereo unspecified), the activation is inactive: -1.78%. The figure for `Cc1ccc(C)c(NP(C)(=O)Oc2ccccc2)c1` (stereo unspecified) is inactive: -12%. Regarding `COc1ccccc1OP(C)(=O)Nc1cccc(Br)c1` (stereo unspecified), the activation is inactive: -9.09%. For `CCOC(=O)c1ccc(NP(C)(=O)Oc2cc(C)cc(C)c2)cc1` (stereo unspecified), the activation is inactive: 1.57%.

`CC1=NCCc2c1[nH]c1ccccc21.O=[N+]([O-])c1cc([N+](=O)[O-])c(O)c([N+](=O)[O-])c1`: the activation is inactive: 0.105%. The figure for `CCOC(=O)c1ccc(NP(C)(=O)Oc2ccccc2)cc1` (stereo unspecified) is inactive: -4.92%; for `Cc1ccc(NP(C)(=O)Oc2ccccc2)c(C)c1` (stereo unspecified) it is inactive: 17.3%; for `COc1ccccc1OP(C)(=O)Nc1ccc(C)cc1` (stereo unspecified) it is inactive: 0.21%.

As to `COc1ccccc1OP(C)(=O)Nc1cc(Cl)ccc1C` (stereo unspecified), the activation is inactive: 3.92% [at 11.5 µM]. Regarding `Cc1cc(C)cc(OP(C)(N)=O)c1` (stereo unspecified), the activation is inactive: 3.35%. Take `O=[N+]([O-])c1cc([N+](=O)[O-])c(Nc2cccnc2)c([N+](=O)[O-])c1`: the activation is inactive: -1.31%.

As to `Cc1cccc(C)c1OP(C)(N)=O` (stereo unspecified), the activation is inactive: 0.0532%. On to `CC(C)(C)c1ccc(OP(C)(=O)Nc2ccc(SC(F)(F)F)cc2)cc1` (stereo unspecified), for which the activation was inactive: -4.58%. For `O=[N+]([O-])c1ccc2c(c1)C=Nc1ccccc1O2`, the activation is inactive: 1.03%. The figure for `CCN(CC)CCCOC(=O)C(O)(c1ccccc1)c1ccccc1` is inactive: 4.67%; for `CCOP(C)(=S)SCC(=O)NC(C)C(=O)O` (stereo unspecified) it is inactive: -4.63%. `CCOC(=O)c1ccc(NP(C)(=O)Oc2ccc(OC)cc2)cc1` (stereo unspecified): the activation was inactive: 3.1%. Turning to `CP(=O)(Oc1ccccc1)OC(c1ccccc1)C(F)(F)F` (stereo unspecified), the activation was inactive: 3.31%.

Take `Cc1cccc(C)c1OP(C)(=O)Nc1ccc(SC(F)(F)F)cc1` (stereo unspecified): the activation is inactive: 0.534%. As to `CP(=O)(Nc1ccc(SC(F)(F)F)cc1)Oc1ccc(Cl)cc1` (stereo unspecified), the activation was inactive: -9.09%. On to `Cc1cc(C)cc(OP(C)(=O)Nc2ccc(SC(F)(F)F)cc2)c1` (stereo unspecified), for which the activation is inactive: 14.2%. The figure for `CCc1ccc(OP(C)(=O)N2CCN(c3ccc([N+](=O)[O-])cc3)CC2)cc1` (stereo unspecified) is inactive: -3.45%. As to `CP(=O)(NC(=O)Nc1ccccc1)Oc1ccccc1` (stereo unspecified), the activation is inactive: 4.7%. In the case of `CP(=S)(Nn1cnnc1)Oc1ccccc1` (stereo unspecified), the activation was inactive: 2.09%. Take `COc1ccccc1OP(C)(=O)Nc1ccccc1` (stereo unspecified): the activation is inactive: -0.246%.

Consider `CP(=O)(Nc1ccccc1Br)Oc1ccccc1` (stereo unspecified), for which the activation is inactive: 6.18%.
